Measured values published in US20240066131A1 (Protagonist Therapeutics, Inc., priority 2020, published 2024).

Biological target: T1, ferroportin (Homo sapiens, UniProt Q9NP59)
T1 sequence (Q9NP59 1-571): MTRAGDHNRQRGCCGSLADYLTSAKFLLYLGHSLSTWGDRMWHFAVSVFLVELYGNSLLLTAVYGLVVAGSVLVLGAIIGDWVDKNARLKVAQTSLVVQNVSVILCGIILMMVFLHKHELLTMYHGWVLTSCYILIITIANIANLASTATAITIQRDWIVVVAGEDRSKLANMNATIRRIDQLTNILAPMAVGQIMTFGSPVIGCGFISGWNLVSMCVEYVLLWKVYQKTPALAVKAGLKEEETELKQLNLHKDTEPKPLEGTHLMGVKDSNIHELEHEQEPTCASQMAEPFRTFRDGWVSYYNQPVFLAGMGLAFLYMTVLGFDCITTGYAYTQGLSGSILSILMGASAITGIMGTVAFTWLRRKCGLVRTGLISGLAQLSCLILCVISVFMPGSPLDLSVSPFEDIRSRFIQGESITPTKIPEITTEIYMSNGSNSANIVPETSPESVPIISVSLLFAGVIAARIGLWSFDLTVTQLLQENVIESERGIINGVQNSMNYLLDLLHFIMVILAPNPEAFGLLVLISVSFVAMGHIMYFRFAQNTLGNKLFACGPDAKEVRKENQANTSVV
Experiment: T47D cell-based ferroportin internalization assay in presence of mouse serum albumin (MSA), AF647 detection peptide, flow cytometry
Set-up: a human breast carcinoma adherent cell line which endogenously expresses ferroportin; host or cells: T47D
Conditions: second Table 6D, T47D/MSA data; with mouse serum albumin
Description: The potency of the peptides in causing ferroportin internalization was evaluated in a T47D cell-based assay. […] In this internalization assay, the potency of the test peptides was evaluated in presence of serum albumin which is the main protein component in the blood. T47D cells were maintained in RPMI media (containing required amount of fetal bovine serum) and regularly sub-cultured. […] The test peptide dilution series were allowed to incubate at room temperature for 30 min. Then the media was aspirated from the 96-well cell plate and test peptide dilution series were added. After 1 hr incubation, the media with test peptides was aspirated out and A1F647-conjugated detection peptide was added at fixed concentration of 200 nM. […] The cells were washed again after a 2 hr incubation in preparation for flow cytometry analysis. The Median Fluorescence Intensity (MFI) of the AF647-positive population was measured (after removing dead cells and non-singlets from the analysis). The MFI values were used to generate a dose-response curve and obtain IC50 potencies for the test peptides. The IC50 potencies were calculated by using 4-parameter non-linear fitting function in Graphpad Prism (Table 6D).

SMILES | IC50
CCCCCCCCCCCCCCCC(=O)NCCCCCC(=O)NCCCC[C@H](NC(=O)C[C@H](Cc1ccccc1)NC(=O)[C@@H]1CCC(=O)NCCCC[C@H](NC(=O)CC(C)C)C(=O)N[C@@H]([C@@H](C)O)C(=O)N[C@@H](Cc2c[nH]cn2)C(=O)N[C@@H](C(c2ccccc2)c2ccccc2)C(=O)N2CCC[C@H]2C(=O)N1)C(N)=O [compound 311] | 15.6 nM
CCCCCCCCCCCCCCCC(=O)NCCCCCC(=O)NCCCC[C@H](NC(=O)[C@@H]1CCC(=O)NCCCC[C@H](NC(=O)CC(C)C)C(=O)N[C@@H]([C@@H](C)O)C(=O)N[C@@H](Cc2c[nH]cn2)C(=O)N[C@@H](C(c2ccccc2)c2ccccc2)C(=O)N2CCC[C@H]2C(=O)N1)C(N)=O [compound 312] | 101 nM
